# Measured affinities in a library of Ab-14 light chain variants

Values reported by Engelhart et al. 2022, doi:10.1038/s41597-022-01779-4 (FLAb copy).

All variants were tested on one target, the spike HR2 peptide PDVDLGDISGINAS (SARS-CoV-2).

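The parent was found by panning a naive human phage display library on the peptide. AAYL50 was designed without a model: most single CDR substitutions and a random sample of double and triple ones. The assay is AlphaSeq: two haploid yeast populations carry antibody and antigen on their surface. Mating (16 h, 30 °C) was followed by selection of diploids and sequencing of their barcodes. A regression on co-assayed BCL2-family reference pairs converts the normalised counts of each replicate to an apparent Kd. The assay was run in three technical replicates.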

Ab-14 is the parent antibody, in scFv form: VH, then a 15-residue (Gly4Ser)3 linker, then VL. The heavy chain is unchanged in all variants.
VH: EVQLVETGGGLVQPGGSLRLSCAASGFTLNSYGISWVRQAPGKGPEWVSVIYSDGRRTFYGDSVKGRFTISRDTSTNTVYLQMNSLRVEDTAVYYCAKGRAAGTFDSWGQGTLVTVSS
VL: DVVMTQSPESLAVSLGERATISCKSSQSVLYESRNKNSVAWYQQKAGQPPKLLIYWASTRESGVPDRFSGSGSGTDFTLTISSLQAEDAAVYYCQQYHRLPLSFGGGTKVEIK

Each variant is given by its three light chain CDRs, as the data file delimits them; those of the parent are KSSQSVLYESRNKNSVA, WASTRES, QQYHRLPLS.
All variants listed here change N37 of the VL, counted from its first residue.
Values are log10 of the apparent Kd in nM; lower means stronger binding.
Replicates are averaged; those with no signal do not enter the mean.
"nd" marks a missing value. The strain was present, yet no cells mated with the target were sequenced in any replicate, which points to weak or no binding.

- KSSQSVLYESRNKYSVA, QASTRES, QQYFRLPLS: 0.30 (3 of 3 replicates)
- KSSQSVLYESRNKFSVH, WASTRES, QQYHRLPLS: 4.94 (2 of 3 replicates)
- KSSQSVLYESRNKTSVA, WASTRES, QQEHRLPLC: nd (0 of 3 replicates)
- KSSQSVLYETRNKRSVA, WASRRES, QQYHRLPLS: 0.75 (3 of 3 replicates)
- KSSQSVLYESRNKASVA, WASTRES, YRYHRLPLS: 1.34 (3 of 3 replicates)
- KSSQSVLYESRNKHSVA, WAVTRES, QQYHRLPLY: 4.56 (2 of 3 replicates)
- KSSQSVLYESCNKQSVA, WASTRES, QQCHRLPLS: 1.23 (3 of 3 replicates)
- VSSQSVLYESRNKWSVA, WASTRES, QQYHRLPLS: 1.53 (3 of 3 replicates)
- KCSQSVLYESRNKDSVA, WASTRES, QQYHRLPLS: 0.72 (3 of 3 replicates)
- KSSQLVLYESRNKSSVA, WASTRES, QQYHRLPLS: 1.80 (3 of 3 replicates)
- KSSQSVLYESRNKSSVA, WNSTRES, QQYHRLPYS: nd (0 of 3 replicates)
- KSSQSVLFESRNKFSVA, WASTRES, QQYHRLPES: 4.93 (2 of 3 replicates)
- KSSQSVLYESRNKASVA, WASTVES, QQFHRLPLS: 2.98 (1 of 3 replicates)
- KSSQSVLYESRNKTSVA, WAPTRES, MQYHRLPLS: 4.54 (2 of 3 replicates)
- KSSQSVLYESRNKRSVA, CASTRES, AQYHRLPLS: 4.49 (3 of 3 replicates)
- KSSESVLYEDRNKISVA, WASTRES, QQYHRLPLS: 3.96 (2 of 3 replicates)
- KSSQSVLYESRIKDSVA, WASTRPS, QQYHRLPLS: 3.22 (1 of 3 replicates)
- KSSQSVLYESRNKHSVA, WAKTRES, PQYHRLPLS: 3.37 (3 of 3 replicates)
- CSSQSVLYESRNKSSVA, WASTRES, QQYHRLPMS: 2.44 (3 of 3 replicates)
- KSSQSVLYESSNKTSVE, WASTRES, QQYHRLPLS: 3.49 (1 of 3 replicates)
- KSSQSVLYESRNKKSVA, WASVRES, QQYHRLPLS: 1.18 (3 of 3 replicates)
- KSSQSVMYESRNKSSVA, WASTRES, QQYHRLTLS: 2.92 (3 of 3 replicates)
- KSSTSVLYESRNKGSVA, WASTRES, AQYHRLPLS: nd (0 of 3 replicates)
- KSSQSVLYESRRKFSVA, WAATRES, QQYHRLPLS: 3.68 (2 of 3 replicates)
- KSSQSVLYESRNKLSVA, WASWRES, RQYHRLPLS: nd (0 of 3 replicates)
- KSSQSMLYESRNKPSVA, WVSTRES, QQYHRLPLS: 2.54 (3 of 3 replicates)
- KSSQSVLYESRNKTSVE, WASTRES, QKYHRLPLS: 5.44 (1 of 3 replicates)
- KSSQHVLYESRNKESVA, WASTRES, QQYHRLPLF: nd (0 of 3 replicates)
- KSSQSVLYESRNKESVA, WASTRES, QQYHRWYLS: 4.15 (1 of 3 replicates)
- KSSQSLLYESRNKESVA, VASTRES, QQYHRLPLS: nd (0 of 3 replicates)
- KSSQSVLYESRNKCSVA, WASYRES, QQYHRLHLS: 3.38 (1 of 3 replicates)
- KSSRAVLYESRNKVSVA, WASTRES, QQYHRLPLS: 2.89 (2 of 3 replicates)
- KSSQSVLYESRNKKMVA, WASTRES, QQYHRLPLS: 3.21 (1 of 3 replicates)

Picked from the list: the 3 lowest averages where every replicate gave a value.

* KSSQSVLYESRNKYSVA, QASTRES, QQYFRLPLS -> 0.30 (3 of 3 replicates)
* KCSQSVLYESRNKDSVA, WASTRES, QQYHRLPLS -> 0.72 (3 of 3 replicates)
* KSSQSVLYETRNKRSVA, WASRRES, QQYHRLPLS -> 0.75 (3 of 3 replicates)

Background: pairings of library AAYL50 with three empty control strains gave a value in 18% of cases (median 4.19, 5th percentile 2.99). Values in that range, when seen in few replicates, are hard to tell from nonspecific mating.